Patent US7485625B2, “Inhibitors of hepatitis C virus NS3/NS4a serine protease” (Schering Corporation, priority 2003, dated 2009)
pKi: −log10 of the molar value.

Amino acid sequences for entries named in this document (tags omitted). Residues count along the entry.
UniProt P27958, 1027-1657: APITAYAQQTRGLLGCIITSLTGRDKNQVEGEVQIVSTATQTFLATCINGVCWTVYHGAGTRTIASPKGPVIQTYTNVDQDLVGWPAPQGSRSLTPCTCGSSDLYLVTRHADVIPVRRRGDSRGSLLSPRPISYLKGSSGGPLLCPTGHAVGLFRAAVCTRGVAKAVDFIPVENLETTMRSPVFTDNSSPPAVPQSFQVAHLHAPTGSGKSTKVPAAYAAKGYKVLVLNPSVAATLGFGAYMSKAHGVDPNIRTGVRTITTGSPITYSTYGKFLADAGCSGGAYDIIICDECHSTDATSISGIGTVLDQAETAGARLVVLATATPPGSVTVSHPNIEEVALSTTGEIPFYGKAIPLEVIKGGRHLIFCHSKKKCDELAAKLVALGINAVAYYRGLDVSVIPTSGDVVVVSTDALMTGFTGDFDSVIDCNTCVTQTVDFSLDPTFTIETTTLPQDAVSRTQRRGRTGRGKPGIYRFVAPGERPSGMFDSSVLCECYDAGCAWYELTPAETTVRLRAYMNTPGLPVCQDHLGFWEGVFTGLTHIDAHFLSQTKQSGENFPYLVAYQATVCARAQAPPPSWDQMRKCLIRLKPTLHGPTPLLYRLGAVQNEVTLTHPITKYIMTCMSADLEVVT
UniProt P27958, 1658-1711: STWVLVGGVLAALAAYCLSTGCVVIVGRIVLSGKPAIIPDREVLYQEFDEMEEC

Target: Recombinant heterodimeric HCV NS3/NS4A protease (strain 1a) (Hepatitis C virus genotype 1a, UniProt P27958)
Assay: Spectrophotometric assay for HCV NS3/NS4a serine protease inhibitory activity (chromogenic ester substrates)
Format: biochemical

C=CCNC(=O)C(=O)C(CCCC)NC(=O)[C@@H]1[C@@H]2[C@H](CN1C(=O)[C@@H](NC(=O)[C@@H](NC(=O)c1cnccn1)C1(C)CCCCC1)C(C)(C)C)C2(C)C (stereo partly drawn) [Entry 17]
pKi (Table 3): 7.77

C=CCNC(=O)C(=O)C(CC1CCC1)NC(=O)[C@@H]1[C@@H]2[C@H](CN1C(=O)[C@@H](NC(=O)[C@@H](NC(=O)c1cnccn1)C1CCCCC1)C1(C)CCCCC1)C2(C)C (stereo partly drawn) [Entry 19]
pKi (Table 3): 7.72

CCCC(NC(=O)[C@@H]1[C@@H]2[C@H](CN1C(=O)[C@@H](NC(=O)[C@@H](NC(=O)c1cnccn1)C1CCCCC1)C1(C)CCCCC1)C2(C)C)C(=O)C(=O)NC1CC1 (stereo partly drawn) [Entry 19]
pKi (Table 2, range classes): ≥ 7.00

C=CCNC(=O)C(=O)C(CCC)NC(=O)[C@@H]1[C@@H]2[C@H](CN1C(=O)[C@@H](NC(=O)[C@@H](NC(=O)c1cnccn1)C(C)(C)C)C(C)(C)C)C2(C)C (stereo partly drawn) [Entry 20]
pKi (Table 2, range classes): ≥ 7.00

CC(C)(C)[C@H](NC(=O)[C@@H](NS(=O)(=O)c1ccccc1)C1CCCCC1)C(=O)N1C[C@H]2[C@@H]([C@H]1C(=O)NC(CC1CC1)C(=O)C(N)=O)C2(C)C (stereo partly drawn) [Entry 20]
pKi (Table 3): 7.70

C=CCNC(=O)C(=O)C(CCC)NC(=O)[C@@H]1[C@@H]2[C@H](CN1C(=O)[C@@H](NC(=O)[C@@H](NC(=O)c1cnccn1)C1CCCCC1)C1CCCCC1)C2(C)C (stereo partly drawn) [Entry 21]
pKi (Table 3): 7.66

C=CCNC(=O)C(=O)C(CCCC)NC(=O)[C@@H]1[C@@H]2[C@H](CN1C(=O)[C@@H](NC(=O)[C@@H](NC(=O)c1cnccn1)C(C)(C)C)C(C)(C)C)C2(C)C (stereo partly drawn) [Entry 21]
pKi (Table 2, range classes): 6.00 to 7.00

C=CCNC(=O)C(=O)C(CC1CC1)NC(=O)[C@@H]1[C@@H]2[C@H](CN1C(=O)[C@@H](NC(=O)[C@@H](NC(=O)c1cnccn1)C1CCCCC1)C(C)(C)C)C2(C)C (stereo partly drawn) [Entry 22]
pKi (Table 3): 7.66

C=CCNC(=O)C(=O)C(CC1CCC1)NC(=O)[C@@H]1[C@@H]2[C@H](CN1C(=O)[C@@H](NC(=O)[C@@H](NC(=O)c1cnccn1)C(C)(C)C)C(C)(C)C)C2(C)C (stereo partly drawn) [Entry 22]
pKi (Table 2, range classes): 6.00 to 7.00

C=CCNC(=O)C(=O)C(CCCC)NC(=O)[C@@H]1[C@@H]2[C@H](CN1C(=O)[C@@H](NC(=O)[C@@H](NC(=O)c1cnccn1)C1(C)CCCCC1)C1(C)CCCCC1)C2(C)C (stereo partly drawn) [Entry 23]
pKi (Table 3): 7.66

CC(C)(C)[C@H](NC(=O)[C@@H](NS(=O)(=O)c1cccs1)C1CCCCC1)C(=O)N1C[C@H]2[C@@H]([C@H]1C(=O)NC(CC1CC1)C(=O)C(N)=O)C2(C)C (stereo partly drawn) [Entry 23]
pKi (Table 2, range classes): ≥ 7.00

C=CCNC(=O)C(=O)C(CCC)NC(=O)[C@@H]1[C@@H]2[C@H](CN1C(=O)[C@@H](NC(=O)[C@@H](NC(=O)c1cnccn1)C1(C)CCCCC1)C1(C)CCCCC1)C2(C)C (stereo partly drawn) [Entry 24]
pKi (Table 3): 7.64

C=CCNC(=O)C(=O)C(CCCC)NC(=O)[C@@H]1[C@@H]2[C@H](CN1C(=O)[C@@H](NC(=O)[C@@H](NS(=O)(=O)c1cccs1)C1CCCCC1)C(C)(C)C)C2(C)C (stereo partly drawn) [Entry 24]
pKi (Table 2, range classes): 6.00 to 7.00

C=CCNC(=O)C(=O)C(CCCC)NC(=O)[C@@H]1[C@@H]2[C@H](CN1C(=O)[C@@H](NC(=O)[C@@H](NS(=O)(=O)c1ccccc1)C1CCCCC1)C(C)(C)C)C2(C)C (stereo partly drawn) [Entry 25]
pKi (Table 2, range classes): 6.00 to 7.00

CC(C)(C)[C@H](NC(=O)[C@@H](NS(=O)(=O)c1ccccc1)C1CCCCC1)C(=O)N1C[C@H]2[C@@H]([C@H]1C(=O)NC(CC1CC1)C(=O)C(N)=O)C2(C)C (stereo partly drawn) [Entry 26]
pKi (Table 2, range classes): ≥ 7.00

C=CCNC(=O)C(=O)C(CCCC)NC(=O)[C@@H]1[C@@H]2[C@H](CN1C(=O)[C@@H](NC(=O)[C@@H](NC(=O)c1cnccn1)C1CCCCC1)C1CCCCC1)C2(C)C (stereo partly drawn) [Entry 27]
pKi (Table 2, range classes): ≥ 7.00

CCC[C@H](NC(=O)[C@@H]1[C@@H]2[C@H](CN1C(=O)[C@@H](NC(=O)[C@@H](NC(=O)c1cnccn1)C1CCCCC1)C(C)(C)C)C2(C)C)C(=O)C(=O)NC1CC1 [Entry 28]
pKi (Table 2, range classes): ≥ 7.00

C#CCCC(NC(=O)[C@@H]1[C@@H]2[C@H](CN1C(=O)[C@@H](NC(=O)[C@@H](NC(=O)c1cnccn1)C1CCCCC1)C(C)(C)C)C2(C)C)C(=O)C(=O)NCC=C (stereo partly drawn) [Entry 29]
pKi (Table 2, range classes): ≥ 7.00

C=CCNC(=O)C(=O)C(CCCC)NC(=O)[C@@H]1[C@@H]2[C@H](CN1C(=O)[C@@H](NC(=O)[C@@H](NC(=O)c1cnccn1)C1CCCCC1)C(C)(C)C)C2(C)C (stereo partly drawn) [Entry 30]
pKi (Table 2, range classes): ≥ 7.00

C=CCNC(=O)C(=O)C(CC1CCC1)NC(=O)[C@@H]1[C@@H]2[C@H](CN1C(=O)[C@@H](NC(=O)[C@@H](NC(=O)c1cnccn1)C1CCCCC1)C(C)(C)C)C2(C)C (stereo partly drawn) [Entry 31]
pKi (Table 2, range classes): ≥ 7.00

C=CCNC(=O)C(=O)C(CCC)NC(=O)[C@@H]1[C@@H]2[C@H](CN1C(=O)[C@@H](NC(=O)[C@@H](NC(=O)c1cnccn1)C1CCCCC1)C(C)(C)C)C2(C)C (stereo partly drawn) [Entry 32]
pKi (Table 2, range classes): ≥ 7.00

C=CCNC(=O)C(=O)C(CCC(F)(F)F)NC(=O)[C@@H]1[C@@H]2[C@H](CN1C(=O)[C@@H](NC(=O)[C@@H](NC(=O)c1cnccn1)C1CCCCC1)C(C)(C)C)C2(C)C (stereo partly drawn) [Entry 33]
pKi (Table 2, range classes): ≥ 7.00

C=CCNC(=O)C(=O)C(CC1CC1)NC(=O)[C@@H]1[C@@H]2[C@H](CN1C(=O)[C@@H](NC(=O)[C@@H](NC(=O)c1cnccn1)C1CCCCC1)C(C)(C)C)C2(C)C (stereo partly drawn) [Entry 34]
pKi (Table 2, range classes): ≥ 7.00

CCC[C@H](NC(=O)[C@@H]1[C@@H]2[C@H](CN1C(=O)[C@@H](NC(=O)[C@@H](NC(=O)c1ccccn1)C1CCCCC1)C(C)(C)C)C2(C)C)C(=O)C(=O)NC1CC1 [Entry 35]
pKi (Table 2, range classes): ≥ 7.00

C=CCNC(=O)C(=O)[C@H](CCC)NC(=O)[C@@H]1[C@@H]2[C@H](CN1C(=O)[C@@H](NC(=O)[C@@H](NC(=O)c1ccccn1)C1CCCCC1)C(C)(C)C)C2(C)C [Entry 36]
pKi (Table 2, range classes): ≥ 7.00

C=CCNC(=O)C(=O)C(CCCC)NC(=O)[C@@H]1[C@@H]2[C@H](CN1C(=O)[C@@H](NC(=O)[C@@H](NC(=O)c1ccccn1)C1CCCCC1)C(C)(C)C)C2(C)C (stereo partly drawn) [Entry 37]
pKi (Table 2, range classes): ≥ 7.00

CCC[C@H](NC(=O)[C@@H]1[C@@H]2[C@H](CN1C(=O)[C@@H](NC(=O)[C@@H](NC(=O)OC(C)(C)C)C1CCCCC1)C(C)(C)C)C2(C)C)C(=O)C(=O)NC1CC1 [Entry 38]
pKi (Table 2, range classes): 6.00 to 7.00

CCC[C@H](NC(=O)[C@@H]1[C@@H]2[C@H](CN1C(=O)[C@@H](NC(=O)[C@@H](NC(=O)C(C)(C)C)C1CCCCC1)C(C)(C)C)C2(C)C)C(=O)C(=O)NC1CC1 [Entry 39]
pKi (Table 2, range classes): ≥ 7.00

C=CCNC(=O)C(=O)C(CC1CC1)NC(=O)[C@@H]1[C@@H]2[C@H](CN1C(=O)[C@@H](NC(=O)[C@@H](NC(=O)c1cnccn1)C1CCCCC1)C1Cc3ccccc3C1)C2(C)C (stereo partly drawn) [Entry 40]
pKi (Table 2, range classes): ≥ 7.00

C=CCNC(=O)C(=O)C(CCC)NC(=O)[C@@H]1[C@@H]2[C@H](CN1C(=O)[C@@H](NC(=O)[C@@H](NC(=O)c1cnccn1)C1CCCCC1)C1Cc3ccccc3C1)C2(C)C (stereo partly drawn) [Entry 41]
pKi (Table 2, range classes): ≥ 7.00

CCC[C@H](NC(=O)[C@@H]1[C@@H]2[C@H](CN1C(=O)[C@@H](NC(=O)[C@@H](NC(=O)c1cccnc1)C1CCCCC1)C(C)(C)C)C2(C)C)C(=O)C(=O)NC1CC1 [Entry 42]
pKi (Table 2, range classes): ≥ 7.00

CCCCC(NC(=O)[C@@H]1[C@@H]2[C@H](CN1C(=O)[C@@H](NC(=O)[C@@H](NC(=O)c1cnccn1)C1CCCCC1)C(C)(C)C)C2(C)C)C(=O)C(=O)NC1CC1 (stereo partly drawn) [Entry 43]
pKi (Table 2, range classes): ≥ 7.00

CCC[C@H](NC(=O)[C@@H]1[C@@H]2[C@H](CN1C(=O)[C@@H](NC(=O)[C@@H](NC(=O)c1cnccn1)C1(C)CCCCC1)C(C)(C)C)C2(C)C)C(=O)C(=O)NC1CC1 [Entry 44]
pKi (Table 2, range classes): ≥ 7.00

C#CCCC(NC(=O)[C@@H]1[C@@H]2[C@H](CN1C(=O)[C@@H](NC(=O)[C@@H](NC(=O)c1cnccn1)C1(C)CCCCC1)C(C)(C)C)C2(C)C)C(=O)C(=O)NCC=C (stereo partly drawn) [Entry 45]
pKi (Table 2, range classes): ≥ 7.00

C=CCNC(=O)C(=O)C(CCCC)NC(=O)[C@@H]1[C@@H]2[C@H](CN1C(=O)[C@@H](NC(=O)[C@@H](NC(=O)c1cnccn1)C1(C)CCCCC1)C(C)(C)C)C2(C)C (stereo partly drawn) [Entry 46]
pKi (Table 2, range classes): ≥ 7.00

C=CCNC(=O)C(=O)C(CCC)NC(=O)[C@@H]1[C@@H]2[C@H](CN1C(=O)[C@@H](NC(=O)[C@@H](NC(=O)c1cnccn1)C1(C)CCCCC1)C(C)(C)C)C2(C)C (stereo partly drawn) [Entry 47]
pKi (Table 2, range classes): ≥ 7.00

C=CCNC(=O)C(=O)C(CCC)NC(=O)[C@@H]1[C@@H]2[C@H](CN1C(=O)[C@@H](NC(=O)[C@@H](NC(=O)c1cnccn1)C1(C)CCCCC1)C1(C)CCCCC1)C2(C)C (stereo partly drawn) [Entry 49]
pKi (Table 2, range classes): ≥ 7.00

C#CCCC(NC(=O)[C@@H]1[C@@H]2[C@H](CN1C(=O)[C@@H](NC(=O)[C@@H](NC(=O)c1cnccn1)C1(C)CCCCC1)C1(C)CCCCC1)C2(C)C)C(=O)C(=O)NCC=C (stereo partly drawn) [Entry 50]
pKi (Table 2, range classes): ≥ 7.00

CCCC(NC(=O)[C@@H]1[C@@H]2[C@H](CN1C(=O)[C@@H](NC(=O)[C@@H](NC(=O)c1cnccn1)C1(C)CCCCC1)C1(C)CCCCC1)C2(C)C)C(=O)C(=O)NC1CC1 (stereo partly drawn) [Entry 51]
pKi (Table 2, range classes): ≥ 7.00
